Apparent affinities of Ab-14 variants for a coronavirus HR2 peptide

Reference: Li et al. 2023, doi:10.1038/s41467-023-39022-2. File: FLAb, binding data.

All variants were tested on one target, the spike HR2 peptide PDVDLGDISGINAS (SARS-CoV-2).

The variants keep the heavy chain, the linker and the frameworks of Ab-14 (scFv order VH, three GGGGS repeats, VL).
VH: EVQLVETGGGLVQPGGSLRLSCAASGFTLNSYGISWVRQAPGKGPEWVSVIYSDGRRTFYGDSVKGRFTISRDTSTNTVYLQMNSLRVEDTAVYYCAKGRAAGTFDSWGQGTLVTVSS
VL: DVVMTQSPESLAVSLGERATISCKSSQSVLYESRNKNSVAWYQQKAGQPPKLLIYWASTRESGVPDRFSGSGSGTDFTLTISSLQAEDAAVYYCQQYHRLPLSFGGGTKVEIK

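This is the validation round: designs drawn from the data on random variants, tested in the same kind of assay. Several design methods are mixed in this list. The scFvs were displayed on barcoded MATa yeast, the peptide on MATalpha yeast. Mating (16 h, 30 °C) was followed by selection of diploids and sequencing of their barcodes. Read counts were normalised to the haploid input and turned into Kd by a linear fit to BCL2-family pairs of known affinity, for each replicate. Each pool was mated in six replicate cultures.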

Each variant is given by its three light chain CDRs, as the data file delimits them; those of the parent are KSSQSVLYESRNKNSVA, WASTRES, QQYHRLPLS. This list holds designs with at most six substitutions. Numbers give log10(Kd / nM), so 0 is 1 nM and 3 is 1 µM. Smaller is tighter. The mean shown is taken over the replicates in which the pair was detected. An entry "nd" has no value in the source: the pair was not observed among the diploids in any replicate. This suggests poor binding but is not conclusive. The range of this assay differs from that of the first round, and the authors advise against merging the two. The authors' rule: three or more of the six replicates give a measured affinity, fewer mean a poor binder. Where one sequence has several entries in the source, the replicates are pooled. Empty control strains, which show no peptide, gave a signal in 4% of pairings with all light chain designs; the median was 2.64 and 95% of these signals were weaker than 1.59. No background was subtracted.

For KSQQSVLYESRNKNSVA / HASTRED / QQYHRLPLS, the assay gave -0.10 (6 of 6 replicates). Variant KSSQSVYYESRNKNSVA / NASTRES / QQYHGLPLS gave 2.48 (4 of 6 replicates). Variant KSSQGVRYESRNKNSVA / WASTRES / QQYHKLPLS showed 1.92 (1 of 6 replicates). Variant HSSPSVLYESRNKNSVA / NASTREV / QQYHRLPLQ showed -0.41 (6 of 6 replicates). For KSQTGVLYESRNKNSVA / GASTRES / QQYHRLPLS, the assay gave -0.33 (6 of 6 replicates). Variant KVSQSQLYESRNKNSVA / NASTRES / QQYHRLPLS gave 0.14 (6 of 6 replicates). With KRSQSPLYESRNKNSVA / FASTREM / QQCHRLPLS the result was nd (0 of 6 replicates). With KSSQSVLYESRNKNSVA / WASQPES / QQYHRLPLS the result was nd (0 of 6 replicates).

Variant KLRQSTLYESRNWNSVA / DASTRES / QQYHRLPLS showed 0.47 (6 of 6 replicates). Variant KVRQSHLYESRNKNSVA / NASTRES / QQYHRLPLS showed -0.16 (6 of 6 replicates). Variant KSSQDVSYESQNKNSVA / WASTRES / QQYHRLPLS showed 0.73 (6 of 6 replicates). Variant KLSWSMLYESRNKNSVA / EASTRES / QQYHRLPLS gave -0.10 (6 of 6 replicates). Variant KSSQSVLETSRNKNSVA / GAVTRES / QQYHRLPLS gave 0.70 (6 of 6 replicates). For KCQQSVLYEHRNSNSVA / WASTRES / QPYHRLPLS, the assay gave nd (0 of 6 replicates). With KLMQSWPYESRNKNSVA / NASTRES / QQYHRLPLS the result was 0.20 (6 of 6 replicates). Variant KSGQGDLYESRNWNSVA / GASTRES / QQYHRLPLS gave -0.13 (6 of 6 replicates).

For KLSQSVQYESRNKNSVA / HASTRES / QQYHRLPLS, the assay gave -0.01 (6 of 6 replicates). Variant KLPQSYLYESRNKNSVA / NASTRLS / QQYHRLPLS showed -0.39 (6 of 6 replicates). Variant KSSQSFLYESRNSNSVA / AASTRES / QQYHHLPLS showed 0.06 (6 of 6 replicates). Variant KQSQSVLYESVNKNSVA / DASTRCS / QQYHRLPLS showed -0.25 (6 of 6 replicates). Variant KSSPSVLSESSNKNSVA / GASTRRS / QQAHRLPLS gave 2.34 (2 of 6 replicates). Variant SFSQSVLYESRVKNSVA / NASTRES / QQYHRLPLS showed -0.08 (6 of 6 replicates). Variant KFSQSVPYESRNKNSVA / NASQRES / QQYHRLPLS gave 0.58 (6 of 6 replicates). Variant KLMQSELYESRNKNSVA / NASQRLS / QQYHRLPLS gave -0.04 (6 of 6 replicates).

For KLPQGVLYESRNKNSVA / GASVRES / QQYHRLPLS, the assay gave -0.30 (6 of 6 replicates). Variant KSSQSVLYESHWKNSVA / WASTRES / QQYHRWPLS gave nd (0 of 6 replicates). For KLQQSYLYESRNKNSVA / NASTRES / QQYHRLPLS, the assay gave -0.02 (6 of 6 replicates). Variant KVSQSDLYESRNKNSVA / NASTRES / QQYHRLPLS showed 0.34 (12 of 12 replicates). With KQQQSVLYESRNKNSVA / DASTRES / QQYQRLPLS the result was -0.67 (6 of 6 replicates). Variant KSSQSVLYESRNKNSVA / WGSTRES / QQYIRLPLS gave 1.72 (6 of 6 replicates). Variant KLSQSVLYESRNKNNVA / GASKRES / QQYHRLPLS gave -0.09 (6 of 6 replicates). For KLSMSFLYESRNKNSVA / EASTRES / QQYHRLPLS, the assay gave 0.24 (6 of 6 replicates).

Variant KDSQSWLYESRNKNSVA / GASTRES / QQYHRLPLS gave 0.04 (6 of 6 replicates). With KFSQSVLYESRNKNSVA / WASTRES / QQVVRLPLS the result was nd (0 of 6 replicates). Variant KSSISGLYESRVKNSVA / EASTRES / QQYHRLPLS gave 0.41 (6 of 6 replicates). With KLEQSSLYESRNKNSVA / NASTRLS / QQYHRLPLS the result was -0.10 (6 of 6 replicates). For KSSQSVLYESRNKNSVA / HAMTRES / QQYLRLPLS, the assay gave 1.49 (6 of 6 replicates).

For reference, 2 entries of the list once more:

{"CDR-L1": "KSSQSVLYESRNKNSVA", "CDR-L2": "HAMTRES", "CDR-L3": "QQYLRLPLS", "log10 Kd (nM), mean": "1.49", "replicates with signal": "6 of 6"}
{"CDR-L1": "KLSQSVLYESRNKNNVA", "CDR-L2": "GASKRES", "CDR-L3": "QQYHRLPLS", "log10 Kd (nM), mean": "-0.09", "replicates with signal": "6 of 6"}